Here are results for six molecules from US7192924B2, “Corticotropin releasing factor 2 receptor agonists” (priority 2002, dated 2007).

Each structure is given as a SMILES string.

One experiment addresses T1, CRF1R (Homo sapiens, UniProt P34998).
T1 sequence (P34998 24-415): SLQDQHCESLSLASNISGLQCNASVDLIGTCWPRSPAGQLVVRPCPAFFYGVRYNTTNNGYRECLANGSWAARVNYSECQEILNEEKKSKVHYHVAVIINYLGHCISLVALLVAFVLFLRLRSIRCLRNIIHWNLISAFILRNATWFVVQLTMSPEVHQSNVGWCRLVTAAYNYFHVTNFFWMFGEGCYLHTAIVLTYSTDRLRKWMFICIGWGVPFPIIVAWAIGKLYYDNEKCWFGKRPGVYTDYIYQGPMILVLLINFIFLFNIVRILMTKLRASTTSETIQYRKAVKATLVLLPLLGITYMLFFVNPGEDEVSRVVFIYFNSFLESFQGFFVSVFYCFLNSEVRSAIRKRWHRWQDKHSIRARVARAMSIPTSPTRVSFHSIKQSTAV
Briefly: CRF1R agonist activity (EC50, Emax), called comparative CRF binding. Type of experiment: cell-based. In short, it runs like this:
(§1)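 Receptor activation was followed through cAMP, measured in lysates or by a CRE-linked reporter, after peptide or vehicle exposure. Cells carried a single CRF receptor subtype, CRF1R or CRF2R; where both were present, background from the non-target receptor was subtracted.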

For a further experiment, the target named is T2, CRF2R (Homo sapiens, UniProt Q13324).
T2 sequence (Q13324 1-411): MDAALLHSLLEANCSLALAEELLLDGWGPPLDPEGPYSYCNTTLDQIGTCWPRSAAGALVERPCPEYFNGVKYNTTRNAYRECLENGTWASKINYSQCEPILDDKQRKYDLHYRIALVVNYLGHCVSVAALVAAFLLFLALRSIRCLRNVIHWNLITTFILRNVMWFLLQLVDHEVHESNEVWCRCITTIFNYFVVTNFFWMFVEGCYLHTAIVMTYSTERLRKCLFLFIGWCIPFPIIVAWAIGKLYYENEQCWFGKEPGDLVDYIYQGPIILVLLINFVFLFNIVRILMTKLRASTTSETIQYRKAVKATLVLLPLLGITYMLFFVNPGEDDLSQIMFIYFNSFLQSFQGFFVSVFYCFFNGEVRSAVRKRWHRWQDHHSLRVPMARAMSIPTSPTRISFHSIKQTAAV
Briefly: CRF2R agonist activity (EC50, Emax), called comparative CRF binding. The class given is cell-based. In short, it runs like this: as §1

A word on the EC50: it is the midpoint of the concentration-response curve. For the molecule `CC[C@H](C)[C@H](NC(=O)[C@@H](NC(=O)[C@H](CC(=O)O)NC(=O)[C@H](CC(C)C)NC(=O)[C@H](CC(C)C)NC(=O)[C@H](CC(C)C)NC(=O)[C@H](CCCNC(=N)N)NC(=O)[C@H](CC(N)=O)NC(=O)[C@H](CC(N)=O)NC(=O)[C@H](C)NC(=O)[C@H](C)NC(=O)[C@H](CCC(N)=O)NC(=O)[C@H](CCC(N)=O)NC(=O)[C@H](CCCCN)NC(=O)[C@H](CCC(=O)O)NC(=O)[C@H](CCCCN)NC(=O)[C@H](CCC(=O)O)NC(=O)[C@H](CCC(N)=O)NC(=O)[C@H](CCCCN)NC(=O)[C@H](CCC(=O)O)NC(=O)[C@@H](NC(=O)[C@H](CCC(=O)O)NC(=O)[C@@H](NC(=O)[C@H](CCSC)NC(=O)[C@H](CCCCN)NC(=O)[C@H](CCCNC(=N)N)NC(=O)[C@H](CC(C)C)NC(=O)[C@H](CC(C)C)NC(=O)[C@@H](NC(=O)[C@H](Cc1ccccc1)NC(=O)[C@@H]1CCCN1C(=O)[C@H](CC(C)C)NC(=O)[C@H](CC(=O)O)NC(=O)[C@@H](NC(=O)[C@H](CO)NC(=O)[C@@H](NC(=O)[C@@H]1CCCN1C(=O)[C@@H]1CCCN1C(=O)CNC(=O)[C@@H]1CCC(=O)N1)[C@@H](C)CC)[C@@H](C)CC)C(C)C)[C@@H](C)CC)[C@@H](C)CC)[C@@H](C)O)C(N)=O` [compound 190], the EC50 on CRF1R was above 100 nM; at CRF2R, 39.6 nM.
The corresponding values for `CC[C@H](C)[C@H](NC(=O)[C@@H](NC(=O)[C@H](CC(=O)O)NC(=O)[C@H](CC(C)C)NC(=O)[C@H](CC(C)C)NC(=O)[C@H](CC(C)C)NC(=O)[C@H](CCCNC(=N)N)NC(=O)[C@H](CC(N)=O)NC(=O)[C@H](CC(N)=O)NC(=O)[C@H](C)NC(=O)[C@H](C)NC(=O)[C@H](CCC(N)=O)NC(=O)[C@H](CCC(N)=O)NC(=O)[C@H](CCCCN)NC(=O)[C@H](CCC(=O)O)NC(=O)[C@H](CCCCN)NC(=O)[C@H](CCC(=O)O)NC(=O)[C@H](CCC(N)=O)NC(=O)[C@H](CCCCN)NC(=O)[C@H](CCC(=O)O)NC(=O)[C@@H](NC(=O)[C@H](CCC(=O)O)NC(=O)[C@@H](NC(=O)[C@H](CCSC)NC(=O)[C@H](CCCCN)NC(=O)[C@H](CCCNC(=N)N)NC(=O)[C@H](CC(C)C)NC(=O)[C@H](CC(C)C)NC(=O)[C@H](Cc1c[nH]c2ccccc12)NC(=O)[C@@H](NC(=O)[C@@H]1CCCN1C(=O)[C@H](CC(C)C)NC(=O)[C@H](CC(=O)O)NC(=O)[C@@H](NC(=O)[C@H](CO)NC(=O)[C@@H](NC(=O)[C@@H]1CCCN1C(=O)[C@@H]1CCCN1C(=O)CNC(=O)[C@@H]1CCC(=O)N1)[C@@H](C)CC)[C@@H](C)CC)[C@@H](C)CC)[C@@H](C)CC)[C@@H](C)CC)[C@@H](C)O)C(N)=O` [compound 192] are 562 nM and 66.8 nM.
For the molecule `CC[C@H](C)[C@H](NC(=O)[C@@H](NC(=O)[C@H](CC(=O)O)NC(=O)[C@H](CC(C)C)NC(=O)[C@H](CC(C)C)NC(=O)[C@H](CC(C)C)NC(=O)[C@H](CCCNC(=N)N)NC(=O)[C@H](CC(N)=O)NC(=O)[C@H](CC(N)=O)NC(=O)[C@H](C)NC(=O)[C@H](C)NC(=O)[C@H](CCC(N)=O)NC(=O)[C@H](CCC(N)=O)NC(=O)[C@H](CCCCN)NC(=O)[C@H](CCC(=O)O)NC(=O)[C@H](CCCCN)NC(=O)[C@H](CCC(=O)O)NC(=O)[C@H](CCC(N)=O)NC(=O)[C@H](CCCCN)NC(=O)[C@H](CCC(=O)O)NC(=O)[C@@H](NC(=O)[C@H](CCC(=O)O)NC(=O)[C@@H](NC(=O)[C@H](CCSC)NC(=O)[C@H](CCCCN)NC(=O)[C@H](CCCNC(=N)N)NC(=O)[C@H](CC(C)C)NC(=O)[C@H](CC(C)C)NC(=O)[C@@H](NC(=O)[C@H](CC(C)C)NC(=O)[C@@H]1CCCN1C(=O)[C@H](CC(C)C)NC(=O)[C@H](CC(=O)O)NC(=O)[C@@H](NC(=O)[C@H](CO)NC(=O)[C@@H](NC(=O)[C@@H]1CCCN1C(=O)[C@@H]1CCCN1C(=O)CNC(=O)[C@@H]1CCC(=O)N1)[C@@H](C)CC)[C@@H](C)CC)C(C)C)[C@@H](C)CC)[C@@H](C)CC)[C@@H](C)O)C(N)=O` [compound 193], the EC50 on CRF1R was 265 nM; on CRF2R, 10.1 nM.
Take `CC[C@H](C)[C@H](NC(=O)[C@@H](NC(=O)[C@H](CC(=O)O)NC(=O)[C@H](CC(C)C)NC(=O)[C@H](CC(C)C)NC(=O)[C@H](CC(C)C)NC(=O)[C@H](CCCNC(=N)N)NC(=O)[C@H](CC(N)=O)NC(=O)[C@H](CC(N)=O)NC(=O)[C@H](C)NC(=O)[C@H](C)NC(=O)[C@H](CCC(N)=O)NC(=O)[C@H](CCC(N)=O)NC(=O)[C@H](CCCCN)NC(=O)[C@H](CCC(=O)O)NC(=O)[C@H](CCCCN)NC(=O)[C@H](CCC(=O)O)NC(=O)[C@H](CCC(N)=O)NC(=O)[C@H](CCCCN)NC(=O)[C@H](CCC(=O)O)NC(=O)[C@@H](NC(=O)[C@H](CCC(=O)O)NC(=O)[C@@H](NC(=O)[C@H](CCSC)NC(=O)[C@H](CCCCN)NC(=O)[C@H](CCCNC(=N)N)NC(=O)[C@H](CC(C)C)NC(=O)[C@H](CC(C)C)NC(=O)[C@H](CC(C)C)NC(=O)[C@H](CCC(N)=O)NC(=O)[C@@H]1CCCN1C(=O)[C@H](CC(C)C)NC(=O)[C@H](CC(=O)O)NC(=O)[C@@H](NC(=O)[C@H](CO)NC(=O)[C@@H](NC(=O)[C@@H]1CCCN1C(=O)[C@@H]1CCCN1C(=O)CNC(=O)[C@@H]1CCC(=O)N1)[C@@H](C)CC)[C@@H](C)CC)[C@@H](C)CC)[C@@H](C)CC)[C@@H](C)O)C(N)=O` [compound 196]: the EC50 at CRF1R is 447 nM; at CRF2R, 27.7 nM.
`CC[C@H](C)[C@H](NC(=O)[C@@H](NC(=O)[C@H](CC(=O)O)NC(=O)[C@H](CC(C)C)NC(=O)[C@H](CC(C)C)NC(=O)[C@H](CC(C)C)NC(=O)[C@H](CCCNC(=N)N)NC(=O)[C@H](CC(N)=O)NC(=O)[C@H](CC(N)=O)NC(=O)[C@H](C)NC(=O)[C@H](C)NC(=O)[C@H](CCC(N)=O)NC(=O)[C@H](CCC(N)=O)NC(=O)[C@H](CCCCN)NC(=O)[C@H](CCC(=O)O)NC(=O)[C@H](CCCCN)NC(=O)[C@H](CCC(=O)O)NC(=O)[C@H](CCC(N)=O)NC(=O)[C@H](CCCCN)NC(=O)[C@H](CCC(=O)O)NC(=O)[C@@H](NC(=O)[C@H](CCC(=O)O)NC(=O)[C@@H](NC(=O)[C@H](CCSC)NC(=O)[C@H](CCCCN)NC(=O)[C@H](CCCNC(=N)N)NC(=O)[C@H](CC(C)C)NC(=O)[C@H](CC(C)C)NC(=O)[C@@H](NC(=O)[C@H](CCC(N)=O)NC(=O)[C@@H]1CCCN1C(=O)[C@H](CC(C)C)NC(=O)[C@H](CC(=O)O)NC(=O)[C@@H](NC(=O)[C@H](CO)NC(=O)[C@@H](NC(=O)[C@@H]1CCCN1C(=O)[C@@H]1CCCN1C(=O)CNC(=O)[C@@H]1CCC(=O)N1)[C@@H](C)CC)[C@@H](C)CC)[C@@H](C)CC)[C@@H](C)CC)[C@@H](C)CC)[C@@H](C)O)C(N)=O` [compound 199]: the EC50 was found to be 707 nM at CRF1R and 8.5 nM on CRF2R.
`CC[C@H](C)[C@H](NC(=O)[C@@H](NC(=O)[C@H](CC(=O)O)NC(=O)[C@H](CC(C)C)NC(=O)[C@H](CC(C)C)NC(=O)[C@H](CC(C)C)NC(=O)[C@H](CCCNC(=N)N)NC(=O)[C@H](CC(N)=O)NC(=O)[C@H](CC(N)=O)NC(=O)[C@H](C)NC(=O)[C@H](C)NC(=O)[C@H](CCC(N)=O)NC(=O)[C@H](CCC(N)=O)NC(=O)[C@H](CCCCN)NC(=O)[C@H](CCC(=O)O)NC(=O)[C@H](CCCCN)NC(=O)[C@H](CCC(=O)O)NC(=O)[C@H](CCC(N)=O)NC(=O)[C@H](CCCCN)NC(=O)[C@H](CCC(=O)O)NC(=O)[C@@H](NC(=O)[C@H](CCC(=O)O)NC(=O)[C@@H](NC(=O)[C@H](CCSC)NC(=O)[C@H](CCCCN)NC(=O)[C@H](CCCNC(=N)N)NC(=O)[C@H](CC(C)C)NC(=O)[C@H](CC(C)C)NC(=O)[C@H](CCC(N)=O)NC(=O)[C@H](Cc1ccc(O)cc1)NC(=O)[C@@H]1CCCN1C(=O)[C@H](CC(C)C)NC(=O)[C@H](CC(=O)O)NC(=O)[C@@H](NC(=O)[C@H](CO)NC(=O)[C@@H](NC(=O)[C@@H]1CCCN1C(=O)[C@@H]1CCCN1C(=O)CNC(=O)[C@@H]1CCC(=O)N1)[C@@H](C)CC)[C@@H](C)CC)[C@@H](C)CC)[C@@H](C)CC)[C@@H](C)O)C(N)=O` [compound 202]: the EC50 came to 404 nM on CRF1R and 8.7 nM at CRF2R.
